## AlphaSeq binding of Ab-14 heavy chain variants to a spike HR2 peptide

Values reported by Li et al. 2023, doi:10.1038/s41467-023-39022-2 (FLAb copy).

The target is the same throughout: PDVDLGDISGINAS, from the HR2 region of SARS-CoV-2 spike.

Each scFv is VH, the linker GGGGSGGGGSGGGGS, VL, as in the parent Ab-14, and differs from it in the CDRs of the heavy chain only.
VH: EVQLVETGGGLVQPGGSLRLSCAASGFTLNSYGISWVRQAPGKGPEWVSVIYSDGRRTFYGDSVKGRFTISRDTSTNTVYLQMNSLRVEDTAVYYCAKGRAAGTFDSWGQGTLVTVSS
VL: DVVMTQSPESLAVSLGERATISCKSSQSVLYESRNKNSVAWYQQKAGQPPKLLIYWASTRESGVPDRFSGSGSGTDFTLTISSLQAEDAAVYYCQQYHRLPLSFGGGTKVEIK

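Phage display of a naive human antibody library on the peptide gave the parent. The variants were designed computationally from a first round of random CDR variants and then made and measured. Group labels follow the data file (Ctrl: baseline library sampled from a position-specific scoring matrix, with some repeated check sequences; Rand: our label for a block that the file lists under HC and that is probably the random mutants of the ten best first-round binders; En: ensemble of fine-tuned language models; GP: Gaussian process model; GPLM: also part of the Gaussian process libraries; HC: hill climbing; Gen: genetic algorithm; Gibbs: Gibbs sampling; a sequence that several methods proposed may carry one label only). Affinity was read by AlphaSeq, a pooled yeast mating assay with surface-displayed partners. Mating (16 h, 30 °C) was followed by selection of diploids and sequencing of their barcodes. Read counts were normalised to the haploid input and turned into Kd by a linear fit to BCL2-family pairs of known affinity, for each replicate. Each pool was mated in six replicate cultures.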

Each variant is given by its three heavy chain CDRs, as the data file delimits them; those of the parent are GFTLNSYGIS, VIYSDGRRTFYGDSVK, GRAAGTFDS. The Kd shown is the geometric mean over detected replicates; a lower Kd is a better binder. Where no diploid with the target was found in any replicate, the entry reads "not detected": below detection, most likely a poor binder, though not proof of it.

CDR-H1,CDR-H2,CDR-H3,group,Kd (apparent),seen in,empty controls
GFSLNSYGIS,VIYSDGKRTFYGDSVK,GQAAGTFDL,GPLM_Gen,3.0 nM,6/6,0/18
GFDLNEYGIS,VIYADGKRTAYTDSVK,GENAGTFDM,En_Gen,790 pM,6/6,0/18
GFTLNDYGIS,VIYSDGRRTFYGDSVK,GWAAGTFDS,Ctrl,19 nM,6/6,0/18
GFNINEYGIS,VIYADGQRLSYDDKVK,GDIGGTFND,En_Gibbs,2.0 nM,6/6,0/18
GFDLNEYGIS,VIYADGMRTFYADSVK,GGNAGTFDV,En_Gen,360 pM,6/6,0/18
GFDLNEYGIS,VIYADGRRTFYADSVK,GNNAGTFNN,En_HC,190 pM,6/6,1/18
GFTLNDYGIS,VIYSDGRRVFYLDSVK,GRASGTFDS,Ctrl,100 nM,2/6,0/18
GFTLNDYGIS,VIYSDGRRTFYGDSVK,GRAAVTFDG,GPLM_HC,not detected,0/6,0/18
GFSLDEYGIS,VIYADGIRAHYSDQVK,GVKNGNVIM,En_Gibbs,1.4 µM,2/6,2/18
GFDLNEYGIS,VIYADGRRTFYADSVK,GQNAGTFSS,En_HC,1.2 nM,6/6,0/18
GFDIQEYGIS,VIYADGHRTSYTNKVK,GGISMISST,En_Gibbs,not detected,0/6,0/18
GFDLNEYGIS,VIYADGVRKAYADSVK,GTNAGTFDV,En_Gen,2.1 nM,6/6,0/18
GFDLNEYGIS,VIYADGRRTFYSDSVK,GEQAGTFDV,En_HC,500 pM,6/6,0/18
GFDLNEYGIS,VIYADGVRTAYADDVK,GNTAGTFDI,En_Gen,110 pM,6/6,0/18
GFTLNSYGIS,VIYSDGRRTFYGDFVK,GRAAGTFDS,Ctrl,not detected,0/6,1/18
GFDLNEYGIS,VIYADGLRTSYVDSVK,GQLAGTFDQ,En_HC,350 pM,6/6,0/18
GFALNEYGIS,VIYSDGRRTFYGDSVK,GQAAGTFDK,GPLM_Gen,15 nM,6/6,0/18
GFTLNSYGIS,VIYSDGRRTFYIDSVK,GQLAGTFDS,GPLM_Gen,45 nM,4/6,0/18
GFDLNEYGIS,VIYADGKRTVYADSVK,GGNAGTFDV,En_Gen,340 pM,6/6,2/18
GFTLMSYGIS,VIYADGRRTFYGDSVK,GQAAGTFDS,GP_HC,9.8 nM,6/6,2/18
GFDLDEYGIS,VIYADGMRKAYADSVK,GNNAGTFDV,En_Gen,280 pM,6/6,1/18
GFTLNQYGIH,VIYSDGRRTFYADSVK,GRAAGTFDS,Ctrl,8.7 nM,6/6,1/18
GFTLNDYGIS,VIYSDGRRTFYGDDVR,GRAAGTFDS,Ctrl,9.3 nM,6/6,0/18
GFTLDSYGIS,VIYSDGRRTFYIDSVK,GNAAGTFDS,GPLM_Gen,1.1 nM,6/6,0/18
GFNLNSYGIS,VIYSDGRRTFYGDSVK,GRNAGGFDS,Ctrl,not detected,0/6,0/18
GFDLNEYGIS,VIYADGMRTHYTDSVK,GNEAGTFDI,En_HC,7.9 nM,6/6,2/18
GFTLNDYGIS,VIYSDGRRTFYGDSVK,GTAALTFIS,Rand,not detected,0/6,0/18
GFDLNEYGIS,VIYADGMRTAYADDVK,GTNAGTFDL,En_Gen,500 pM,6/6,0/18
KFDLNSYGIS,VIYSDGRRTFYIDSVK,GNAAGTFDS,GP_Gen,120 nM,4/6,1/18
GFELNSYGIS,VIYSDGRRTFYIDSVK,GKEAGTFDS,GP_Gen,1.9 nM,6/6,2/18
GFSLNEYGIS,VIYSDGRRTFYGDSVK,GRAAGTFDD,GPLM_Gen,1.2 nM,6/6,0/18
GFDLNEYGIS,VIYADGRRTAYVDNVK,GEVAGTFDV,En_Gen,330 pM,6/6,1/18
GFSLNSYGIS,VIYSDGRRTFYSDSVK,GKAAGTFDQ,GP_Gen,3.4 nM,4/6,0/18
GFDLNEYGIS,VIYADGRRTFYADSVK,GEAAGTFFD,En_HC,3.7 nM,6/6,0/18
GFELNSYGIS,VIYSDGRRTFYGDSVK,GKMAGTFDS,GPLM_Gibbs,6.9 nM,6/6,0/18
GFELNSYGIS,VIYSDGRRTFYADSVK,GQAAGTFDA,GPLM_Gen,1.3 nM,6/6,0/18
GFDLNSYGIS,VIYSDGRRTFYGDSVK,GRAAGWCNK,Rand,not detected,0/6,0/18
GFTLNSYGIS,VIYSDGRRTFYGDSVK,GKAAGTFDH,Ctrl,220 nM,5/6,0/18
GFELNSYGIS,VIYSDGRRTFYGDNVK,GRRAGTFDS,Ctrl,not detected,0/6,0/18
GFNLNSYGIS,VIYSDGRRTFYGDSVK,GRTAGTFDV,GP_Gen,45 nM,6/6,0/18
GFDLNEYGIS,VIYADGVRTAYSDSVK,GHNAGTFDV,En_Gen,550 pM,6/6,0/18
GFTLNSYGIS,VIYSDGRRTFYADSVK,GKQAGTFDS,GP_Gen,1.7 nM,6/6,0/18
GFDLNEYGIS,VIYADGKRQAYADSVK,GNNAGTFDV,En_Gen,180 pM,6/6,0/18
GFDLNEYGIS,VIYADGRRTAYLDSVK,GQVAGTFDS,En_HC,220 pM,5/6,0/18
GFDLNEYGIS,VIYADGKRTFYSDSVK,GQLAGTFDV,En_HC,1.1 nM,6/6,0/18
GFDLDEYGIS,VIYADGTRKMYAPTFK,GNHGGTFLM,En_Gibbs,not detected,0/6,0/18
GFELNSYGIS,VIYSDGRRTFYADAVK,GKNAGTFDS,GP_Gibbs,2.5 nM,5/6,0/18
GFTLNSYGIS,VIYSDGWRTFYVDSVK,GRCAGTFDS,Ctrl,not detected,0/6,0/18

Again, the first 3 entries without any signal:

CDR-H1,CDR-H2,CDR-H3,group,Kd (apparent),seen in,empty controls
GFTLNDYGIS,VIYSDGRRTFYGDSVK,GRAAVTFDG,GPLM_HC,not detected,0/6,0/18
GFDIQEYGIS,VIYADGHRTSYTNKVK,GGISMISST,En_Gibbs,not detected,0/6,0/18
GFTLNSYGIS,VIYSDGRRTFYGDFVK,GRAAGTFDS,Ctrl,not detected,0/6,1/18

The authors averaged sequences with at least three values out of six and counted those with two or fewer as poor binders. Values of this round are not directly comparable with the first-round values of the same sequences. The parent sequence was in this pool as ten entries: three were never detected, three once, and four in most replicates, with averages from 2.2 nM to 240 nM. Background: pairings of all heavy chain designs with three empty control strains gave a value in 1% of cases (median 120 nM, 5th percentile 7.0 nM). Values in that range, when seen in few replicates, are hard to tell from nonspecific mating. Also given: how often the same scFv was detected with the empty control strains.